We go through 1 compound from patent US5576187A (priority 1994, dated 1996).

Molecules are shown by their SMILES. Some compounds may have been tested in ways that are not shown here.

The conditions of data set [1]: storage at 50, 37, RT, 4, or minus 20° C.; curves only in FIGS. 2-5.
For data set [2], the system named is anti-chlorpyrifos monoclonal antibody. The following applies: competition assay, 15 minutes at room temperature, absorbance at 450 nm.

For `CCOP(=S)(Cl)OCC`, the “stability upon storage (B/Bo in the immunoassay as a function of storage time and temperature)” value in data set [1] is listed as “more stable than chlorpyrifos”. Further, the “relative reactivity: concentration equivalent to 1 ppB of chlorpyrifos in the immunoassay” value in data set [2] stood at 8 ppm.
